These results are taken from patent US5972907A, “Synthetic core 2-like branched structures containing GalNAc-lewis^x and Neu5Acα2-3Galβ1-3GalNAc sequences as novel ligands for selectins” (Health Research, Inc., priority 1997, dated 1999).

In one assay the target is T1, E-Selectin (Homo sapiens, UniProt P16581).
T1 sequence (P16581 22-610): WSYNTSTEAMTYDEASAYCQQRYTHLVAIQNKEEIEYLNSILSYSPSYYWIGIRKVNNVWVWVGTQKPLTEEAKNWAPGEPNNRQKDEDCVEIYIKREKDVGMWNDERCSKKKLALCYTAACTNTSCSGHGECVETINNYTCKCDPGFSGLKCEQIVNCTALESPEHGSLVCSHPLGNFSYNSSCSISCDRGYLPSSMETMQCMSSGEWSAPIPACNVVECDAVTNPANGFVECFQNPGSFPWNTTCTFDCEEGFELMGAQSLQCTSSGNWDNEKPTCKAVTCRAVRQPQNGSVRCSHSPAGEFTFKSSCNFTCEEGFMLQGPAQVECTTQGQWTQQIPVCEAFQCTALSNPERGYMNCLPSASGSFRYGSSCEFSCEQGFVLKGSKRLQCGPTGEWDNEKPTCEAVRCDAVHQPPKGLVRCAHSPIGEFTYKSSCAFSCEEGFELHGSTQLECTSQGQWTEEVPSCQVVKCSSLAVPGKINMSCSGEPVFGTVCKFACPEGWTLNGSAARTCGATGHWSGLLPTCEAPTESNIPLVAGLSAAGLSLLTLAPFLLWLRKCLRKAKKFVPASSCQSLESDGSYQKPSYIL
Description: ELISA inhibition of recombinant E-selectin binding to immobilized SLe^x. Conditions: mean of 3 determinations, read-out: IC50 Values Against SLe^x, E-Selectin. On the procedure: (§1) Relative Inhibitory Properties of Branched Chains Including Neu5Ac and/or GalNAcLe^x Against Recombinant Selectins Binding to Immobilized SLe^x
(§2) ELISA inhibition studies were done as previously reported conditions. Ic50 values against immobilized SLe^x are the mean values of 3 determinations and were calculated according to published methodology.
On the technique in general: An ELISA detects its analyte on a solid surface through an enzyme-linked reagent.

The next assay has as its target T2, P-Selectin (Homo sapiens, UniProt P16109).
T2 sequence (P16109 42-830): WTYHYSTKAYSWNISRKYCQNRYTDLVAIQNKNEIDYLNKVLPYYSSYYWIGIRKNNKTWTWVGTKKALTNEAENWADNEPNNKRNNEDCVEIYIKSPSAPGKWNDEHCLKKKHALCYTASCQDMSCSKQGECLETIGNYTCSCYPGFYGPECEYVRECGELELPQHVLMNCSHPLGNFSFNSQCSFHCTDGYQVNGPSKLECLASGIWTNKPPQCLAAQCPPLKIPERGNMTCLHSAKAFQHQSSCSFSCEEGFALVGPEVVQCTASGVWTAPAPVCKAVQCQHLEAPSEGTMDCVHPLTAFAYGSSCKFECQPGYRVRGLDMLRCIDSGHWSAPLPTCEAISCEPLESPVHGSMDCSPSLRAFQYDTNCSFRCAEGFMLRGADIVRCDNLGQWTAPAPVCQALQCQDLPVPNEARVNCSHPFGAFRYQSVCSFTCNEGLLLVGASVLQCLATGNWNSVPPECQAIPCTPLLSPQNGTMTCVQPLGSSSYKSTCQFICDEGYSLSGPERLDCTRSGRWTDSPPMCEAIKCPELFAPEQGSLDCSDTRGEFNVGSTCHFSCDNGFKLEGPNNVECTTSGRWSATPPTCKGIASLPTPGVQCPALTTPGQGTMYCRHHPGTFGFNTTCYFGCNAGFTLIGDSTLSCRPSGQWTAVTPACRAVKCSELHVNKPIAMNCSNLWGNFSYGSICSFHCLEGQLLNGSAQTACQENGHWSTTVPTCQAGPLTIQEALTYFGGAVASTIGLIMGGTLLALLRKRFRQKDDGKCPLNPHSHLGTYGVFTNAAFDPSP
Description: ELISA inhibition of recombinant P-selectin binding to immobilized SLe^x. As to conditions: mean of 3 determinations, read-out: IC50 Values Against SLe^x, P-Selectin. On the procedure: as §1, §2

Broadly, the IC50 is the midpoint of a concentration-inhibition curve. Turning to sialyl Lewis^x [reference compound], the IC50 was found to be 540 µM on E-Selectin and 520 µM on P-Selectin.
